Among the data in US11485700B2, “Synthesis of (+)-cannabinoids and their therapeutic effects” (SYMRISE AG, priority 2018, dated 2022) are Ki values, retold here.

For this experiment, the target named is CB2 receptor (Homo sapiens (Human), UniProt P34972). The experiment in a line: In vitro binding to CB2 receptor, [3H]-CP55940 radioligand displacement. Particulars: [3H]-CP55940 0.15 nM, membranes of transfected cells. On the procedure:
Compounds with an expected profile as CB1 and/or CB2 receptor ligands were evaluated by competition studies that allow determining the affinity of these compounds (Ki values) for both receptors against a classical cannabinoid ligand. The competition studies were conducted with membranes transfected with either CB1 or CB2 receptors. For stock solutions the compounds were dissolved at concentrations of 50 and 100 mM and stored at −20° C.
96-well plates and the tubes necessary for the experiment were siliconized with Sigmacote (Sigma). Membranes were resuspended in the corresponding buffer and were incubated with the radioligand and each compound for 90 min at 30° C. Non-specific binding was determined with 10 μM WIN55212-2 and 100% binding of the radioligand to the membrane was determined by its incubation with membrane and without any compound. Filtration was performed by a Harvester®filtermate (Perkin-Elmer) with Filtermat A GF/C filters pretreated with polyethylenimine 0.05%. After filtering, the filter was washed nine times with binding buffer, dried and a melt-on scintillation sheet (Meltilex™ A, Perkin Elmer) was melted onto it. Then, radioactivity was quantified by a liquid scintillation spectrophotometer (Wallac MicroBeta Trilux, Perkin-Elmer). […]

`C=C(C)[C@H]1CCC(C)=C[C@@H]1c1c(O)cc(CCCCC)cc1O` [(+)-CBD, (+)-Cannabidiol] gave a Ki of 40.5 nM.
